{
  "source": "patent US7270977B2",
  "about": "“Polypeptides for identifying fungicidally active compounds” (priority 2001, dated 2007)",
  "origin": "cited, not measured here",
  "system": "C. albicans cells",
  "conditions": "cells which have a plasmid with recombinant IMPDH; cited from earlier work",
  "data": [
    {"smiles": "COc1c(C)c2c(c(O)c1C/C=C(\\C)CCC(=O)O)C(=O)OC2", "note": "[mycophenolic acid]", "values": [
      {"measurement": "concentration up to which cells are resistant", "value": "up to 40 μg/ml"}
    ]}
  ]
}
